According to paper PMC6162344:

Molecular target: T1, CENP-R (human), Q13352
T1 chain: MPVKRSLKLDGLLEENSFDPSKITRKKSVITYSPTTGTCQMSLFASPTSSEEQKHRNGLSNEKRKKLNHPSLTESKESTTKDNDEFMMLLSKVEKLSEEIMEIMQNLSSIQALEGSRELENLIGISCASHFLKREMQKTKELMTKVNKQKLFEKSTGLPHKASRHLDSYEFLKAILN
Assay: AUC
Settings: remark: other sources report otherwise

- stoichiometry N: 4
B1: CENP-R, Q13352 1-177 (natural protein)
chain: MPVKRSLKLDGLLEENSFDPSKITRKKSVITYSPTTGTCQMSLFASPTSSEEQKHRNGLSNEKRKKLNHPSLTESKESTTKDNDEFMMLLSKVEKLSEEIMEIMQNLSSIQALEGSRELENLIGISCASHFLKREMQKTKELMTKVNKQKLFEKSTGLPHKASRHLDSYEFLKAILN
